Measurements: the kinase profiling compilation of Christmann-Franck et al. (2016)

Chains of the proteins cited; added tags and fusions are not shown. Lines headed by an entry give the natural chain unless they say otherwise; changes in a name come on top.
UniProt P00519, whole entry, looked up: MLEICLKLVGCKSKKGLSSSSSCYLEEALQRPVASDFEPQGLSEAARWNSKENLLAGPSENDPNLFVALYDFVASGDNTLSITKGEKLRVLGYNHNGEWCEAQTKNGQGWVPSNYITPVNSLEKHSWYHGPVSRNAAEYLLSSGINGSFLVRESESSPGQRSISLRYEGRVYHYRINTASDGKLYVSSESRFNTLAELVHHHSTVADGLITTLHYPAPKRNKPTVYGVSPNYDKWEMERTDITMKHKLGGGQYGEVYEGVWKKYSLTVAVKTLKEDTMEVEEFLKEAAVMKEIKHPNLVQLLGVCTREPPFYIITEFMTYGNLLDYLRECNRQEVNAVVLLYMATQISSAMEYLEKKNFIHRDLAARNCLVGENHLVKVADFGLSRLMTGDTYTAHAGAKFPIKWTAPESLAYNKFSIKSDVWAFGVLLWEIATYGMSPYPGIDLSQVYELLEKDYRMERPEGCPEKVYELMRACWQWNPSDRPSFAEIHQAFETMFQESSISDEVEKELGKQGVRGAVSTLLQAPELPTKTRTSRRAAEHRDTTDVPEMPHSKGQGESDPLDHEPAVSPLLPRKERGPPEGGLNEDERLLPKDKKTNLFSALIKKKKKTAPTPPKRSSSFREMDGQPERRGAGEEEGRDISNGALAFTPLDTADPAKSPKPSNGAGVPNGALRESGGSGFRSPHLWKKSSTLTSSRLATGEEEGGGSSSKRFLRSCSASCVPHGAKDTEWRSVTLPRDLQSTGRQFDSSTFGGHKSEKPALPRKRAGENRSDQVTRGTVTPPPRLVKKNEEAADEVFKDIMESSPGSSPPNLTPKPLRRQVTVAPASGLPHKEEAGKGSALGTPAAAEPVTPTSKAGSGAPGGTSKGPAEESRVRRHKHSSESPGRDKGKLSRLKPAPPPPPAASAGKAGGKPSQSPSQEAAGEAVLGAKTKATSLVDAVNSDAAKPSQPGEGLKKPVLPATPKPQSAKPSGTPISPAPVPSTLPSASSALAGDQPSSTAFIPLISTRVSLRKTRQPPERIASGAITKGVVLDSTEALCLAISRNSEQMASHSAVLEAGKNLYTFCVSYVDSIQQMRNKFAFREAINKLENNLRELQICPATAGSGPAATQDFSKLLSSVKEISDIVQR
UniProt Q13237: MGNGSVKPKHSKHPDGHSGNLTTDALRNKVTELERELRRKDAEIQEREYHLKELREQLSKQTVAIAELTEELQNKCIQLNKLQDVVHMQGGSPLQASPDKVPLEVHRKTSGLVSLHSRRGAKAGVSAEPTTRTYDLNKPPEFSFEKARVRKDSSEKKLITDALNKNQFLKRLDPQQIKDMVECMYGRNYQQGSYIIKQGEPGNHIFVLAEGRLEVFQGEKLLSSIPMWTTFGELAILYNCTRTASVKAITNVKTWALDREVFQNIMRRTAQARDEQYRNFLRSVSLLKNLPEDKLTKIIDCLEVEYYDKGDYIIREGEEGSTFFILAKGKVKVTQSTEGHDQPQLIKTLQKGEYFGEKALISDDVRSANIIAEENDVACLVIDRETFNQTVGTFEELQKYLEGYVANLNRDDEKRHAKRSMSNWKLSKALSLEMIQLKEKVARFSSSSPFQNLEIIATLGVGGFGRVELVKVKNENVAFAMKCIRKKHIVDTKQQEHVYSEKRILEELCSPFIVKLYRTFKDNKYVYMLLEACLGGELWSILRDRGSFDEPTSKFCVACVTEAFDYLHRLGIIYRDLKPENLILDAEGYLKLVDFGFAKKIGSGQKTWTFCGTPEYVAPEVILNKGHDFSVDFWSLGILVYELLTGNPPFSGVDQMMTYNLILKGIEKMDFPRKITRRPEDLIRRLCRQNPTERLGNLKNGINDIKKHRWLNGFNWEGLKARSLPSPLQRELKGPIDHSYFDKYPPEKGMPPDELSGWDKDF

Experiments:
[1] = molecular target: ABL1 (human) (UniProt P00519); test: radiometric filter-binding kinase assay, Kinase HotSpot; settings: compound 0.5 µM; ATP 10 µM
[2] = molecular target: PRKG2 (human) (UniProt Q13237); test: as above; settings: compound 0.5 µM; ATP 10 µM

| Structure (SMILES) | residual activity [1] | residual activity [2] |
| --- | --- | --- |
| CC[C@@H](CO)Nc1nc(NCc2ccccc2)c2ncn(C(C)C)c2n1 | 102% |  |
| COc1cc2ncnc(Nc3ccc(F)c(Cl)c3)c2cc1OCCCN1CCOCC1 |  | 94.8% |
